Chains of the proteins cited; added tags and fusions are not shown. Residues count along the entry.
UniProt P10276, 176-462 limits assumed: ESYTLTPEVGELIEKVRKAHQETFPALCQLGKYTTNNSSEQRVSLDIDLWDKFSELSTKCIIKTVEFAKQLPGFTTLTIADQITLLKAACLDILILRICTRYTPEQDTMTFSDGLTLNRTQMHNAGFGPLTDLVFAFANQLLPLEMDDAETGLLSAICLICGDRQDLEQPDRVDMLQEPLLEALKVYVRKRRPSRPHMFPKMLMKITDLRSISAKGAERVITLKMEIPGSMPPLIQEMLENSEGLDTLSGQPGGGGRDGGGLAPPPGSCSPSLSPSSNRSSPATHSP

In PMC12254369, “Small molecule disruption of RARα/NCoR1 interaction inhibits chaperone-mediated autophagy in cancer” (EMBO Molecular Medicine, 2025):

Target: Recombinant RARα LBD (Homo sapiens, UniProt P10276)
Assay: isothermal titration calorimetry
Details: 25 °C, pH 8.0, 25 mM sodium phosphate, 150 mM NaCl, 1 mM TCEP; RARα injected into compound

- Kd: 2000 nM
Structure (SMILES): O=C(CSc1ncc(CO)n1Cc1ccc(F)cc1)Nc1ccc(OC(F)(F)F)cc1
